Values quoted from earlier work, collected in publication PMC3634732, “Chemical Chaperones Exceed the Chaperone Effects of RIC-3 in Promoting Assembly of Functional α7 AChRs” (PLoS ONE, 2013).
Where two headings read alike, the source gives them in different places.

Tested on: mouse α7 AChRs
Conditions: cited from earlier work

CC(=O)OCC[N+](C)(C)C [ACh]
EC50 (net charge): 13.3 µM
EC50 (peak current values): 450 µM
